“Also recorded” adds a separate entry of the source.
Key:
[1] = IV pH jump test of ADCs; assay type: physicochemical; details: dependence on DAR
Description: By reducing the molar equivalents of DM1-SMCC used in the conjugation process, the desired average DAR of 3 to 4 was achieved (see above).

[2] = Differential Scanning calorimetry (DSC) thermostability; assay type: physicochemical; details: DSC, full-length antibody, Table 11
Description: Differential Scanning calorimetry (DSC) was used to compare the thermostability of parent and engineered antibodies. DSC is a thermodynamical tool for direct assessment of the heat energy uptake, which occurs in a sample within a regulated increase or decrease in temperature. DSC is commonly employed to assess the thermal and conformational stability of a protein. The melting temperature of a protein, or of individual domains, can be obtained from the DSC profile, and if the reaction is reversible the thermodynamic parameters of the unfolding can be determined. A protein is considered more thermostable when the Tm (transition temperature) is higher. When thermostability data are compared to other bioanalytical methods, like size exclusion chromatography (SEC), it has been observed that a correlation between greater thermostability (higher Tm) and decreased aggregation. Antibodies with a higher Tm and decreased aggregation formation have the potential for improved long-term stability thus potentially making better biotherapeutics.
DSC was carried out using a MicroCal™ VP-Capillary DSC system (GE Healthcare, Piscataway, N.J.) equipped with an auto-sampler. The temperature differences between the reference and sample cells are continuously measured, and calibrated to power units. For example, the full-length antibodies shown in TABLE 10 were diluted to 0.5 mg/mL in a buffered solution. The solution reference and protein samples were measured in a 135 μL cell from 20 to 110° C. at a heating rate of 60° C./hour. The pre-scan was set at 15 minutes while the filtering period was 10 seconds. Signal from the blank buffer solution was used for baseline subtraction. The data analysis was performed using MicroCal™ Origin 7 software. Heat capacity during protein melting was calculated by normalizing over protein concentration.

[3] = Isoelectric point of whole antibody; assay type: physicochemical
[4] = system: U266 luciferase-labeled myeloma cells; experiment: U266-luc bone-tropic xenograft model; assay type: in vivo, NSG mice
Experimental: In an additional myeloma bone-tropic xenograft model similar to that above, U266 luciferase-labeled myeloma cells that express an average of 9,000 BCMA sites per cell were administered intravenously (1×10^6 cells) into NSG mice. Twenty eight days after tumor inoculation, tumor-bearing animals were randomized based on hind limb bioluminescence (tumor burden) into groups of ten animals each and dosed intravenously or intraperitoneally as denoted by the red Rx symbol. A blinded dosing study of 2A1CV5-MCC-DM1, unconjugated 2A1CV5 and PBS employing a single dose of 250 ug DM1/kg (10 mg Ab/kg) administered at day 28 was performed in this established bone-tropic tumor model. Following euthanasia, the animals were radiographed. The hind limbs were disarticulated, fixed in 10% neutral buffered formalin and decalcified. Bones were subsequently processed, embedded, sectioned and a single representative bone from each animal was stained by H&E, TRAP stain and for huCD138 expression (IHC). Bone sections were examined microscopically to determine if residual disease (huCD138+ cells) were present and to estimate the extent of the surface of the medullary cavity and bone spicules that was covered by TRAP+ osteoclasts.

[5] = target: T1, [6x Histidine-SUMO]-huBCMA (SEQ ID NO:350) and carboxy terminal clipped forms (Homo sapiens, UniProt Q02223); experiment: Size exclusion chromatography and LC/MS of antibody complexes with Sumo-huBCMA and its clipped forms; assay type: binding; details: SEC
T1 construct: GGS-G3 linker + Avi tag (lost in the clipped species) (C); made in house
T1 sequence (Q02223 5-54): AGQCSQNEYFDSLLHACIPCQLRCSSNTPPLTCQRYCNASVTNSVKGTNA
Description: To determine which forms of 6×His-SUMO-huBCMA were bound to the anti-huBCMA antibodies, the SEC fractions were isolated and analyzed. Carboxy-terminus fragments of the extracellular domain of human BCMA were generated as clipped forms from the rhuBCMA fusion protein (6×His::Sumo::huBCMA(aa 5-51)::GGS::G3::Avi) of SEQ ID NO:350, as shown in FIG. 45.
A Superdex 200™ 10/30 cm SEC column (GE Healthcare Life Sciences) was used according to the manufacturer's recommendations and run in phosphate buffered saline (PBS). Incubations of antibody with excess levels of sumoBCMA were performed at room temperature for at least 30 minutes.
A Superdex 200™ 10/30 cm SEC column (GE Healthcare Life Sciences) was used according to the manufacturer's recommended condision and run in phosphate buffered saline (PBS). Incubations of antibody with excess levels of sumoBCMA were performed at room temperature for at least 30 minutes.
5 ug of total proteins were reduced in 50 mM Tris/4 M guanidine/9 mM DTT, pH 8.0 at 55° C. for 15 min, and analyzed in Agilent LCTOF system using a Vydac C8 column, 2.1 mm ID×150 mm, […] particle size. […] TOF MS conditions included capillary voltage of 4000 V, drying gas flow at 10 L/min, dry gas temperature at 300° C., nebulizer gas flow at 40 L/min, and fragmentor voltage of 300 V. MS data was analyzed in Agilent MassHunter™ Qualitative Analysis program.

B1: Ab-1 (antibody)
heavy: EVQLVESGGGLVKPGGSLRLSCAASGFTFGDYALSWFRQAPGKGLEWVGVSRSKAYGGTTDYAASVKGRFTISRDDSKSTAYLQMNSLKTEDTAVYYCASSGYSSGWTPFDYWGQGTLVTVSSASTKGPSVFPLAPSSKSTSGGTAALGCLVKDYFPEPVTVSWNSGALTSGVHTFPAVLQSSGLYSLSSVVTVPSSSLGTQTYICNVNHKPSNTKVDKKV[omitted - human IgG1 Fc]
light: QSVLTQPPSASGTPGQRVTISCSGSSSNIGSNTVNWYQQLPGTAPKLLIFNYHQRPSGVPDRFSGSKSGSSASLAISGLQSEDEADYYCAAWDDSLNGWVFGGGTKLTVLGQPKAAPSVTLFPPSSEELQANKATLVCLISDFYPGAVTVAWKADSSPVKAGVETTTPSKQSNNKYAASSYLSLTPEQWKSHRSYSCQVTHEGSTVEKTVAPTECS
With B1 the “precipitation / stability in IV pH jump test” value [1] was “stable to pH changes”, the Tm [2] was 76 °C and the “pI (Whole)” value [3] was 8.39. The “antitumor effect (hind limb bioluminescence)” value ([4]; single dose 250 ug DM1/kg (10 mg Ab/kg) at day 28, IV or IP) was “modest decrease in tumor growth”, the “residual disease in bone (histology, huCD138, TRAP)” value ([4]; single injection, IV or IP route) was “slowed tumor growth but did not cure animals of their disease” and the “binding to full-length and truncated forms of huBCMA” value [5] was “bind all fragments of human BCMA; also recorded: bound various fragments of human BCMA”.
